Measured values: US20180110824A1

Chains of the proteins cited; added tags and fusions are not shown.
UniProt Q92847, whole entry: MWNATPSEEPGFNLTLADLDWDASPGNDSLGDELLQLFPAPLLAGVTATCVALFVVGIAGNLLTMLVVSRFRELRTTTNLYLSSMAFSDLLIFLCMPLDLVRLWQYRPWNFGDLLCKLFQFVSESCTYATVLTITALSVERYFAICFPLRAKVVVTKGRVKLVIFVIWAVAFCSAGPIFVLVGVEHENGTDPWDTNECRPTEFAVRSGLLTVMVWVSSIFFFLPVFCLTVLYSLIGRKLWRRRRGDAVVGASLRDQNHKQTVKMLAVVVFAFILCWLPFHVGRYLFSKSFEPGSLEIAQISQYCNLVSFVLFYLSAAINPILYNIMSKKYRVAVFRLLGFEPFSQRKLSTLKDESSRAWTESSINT
UniProt O43193, whole entry: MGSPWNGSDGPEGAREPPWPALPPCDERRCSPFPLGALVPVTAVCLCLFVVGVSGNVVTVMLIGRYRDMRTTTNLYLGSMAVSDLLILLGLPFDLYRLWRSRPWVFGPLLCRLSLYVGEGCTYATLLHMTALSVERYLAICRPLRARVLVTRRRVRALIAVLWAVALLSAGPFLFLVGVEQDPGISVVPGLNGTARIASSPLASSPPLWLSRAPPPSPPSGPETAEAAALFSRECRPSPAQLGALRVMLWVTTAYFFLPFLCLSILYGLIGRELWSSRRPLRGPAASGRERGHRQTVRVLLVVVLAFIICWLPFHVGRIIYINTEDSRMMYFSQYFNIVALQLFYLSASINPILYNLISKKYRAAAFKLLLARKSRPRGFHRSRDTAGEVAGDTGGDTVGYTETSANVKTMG

Columns and labels:
[1] = target: human ghrelin receptor (hGHS-R1a) (Homo sapiens, UniProt Q92847); assay type: cell-based; conditions: Table 4; functional (agonist) activity; TFA salts unless otherwise noted
[2] = target: human growth hormone secretagogue receptor (hGHS-R1a) (Homo sapiens, UniProt Q92847); experiment: Competitive radioligand binding assay (ghrelin receptor), [125I]-ghrelin displacement on GHS-R/HEK 293 membranes
motilin receptor = motilin receptor (Homo sapiens, UniProt O43193); experiment: Selectivity for the ghrelin receptor versus the motilin receptor
[3] = Table 4, TFA salts unless otherwise noted

| EC50 [1] [nM] | Ki [2, 3] [nM] | Ki ([2]; read-out: Binding Activity at the Human Ghrelin Receptor (Ki), [125I]-ghrelin displacement, GHS-R/HEK 293 membranes, class symbols) [nM] | Selectivity (motilin receptor) | Ki ([2]; Binding activity at the human ghrelin receptor, [125I]-ghrelin displacement) [nM] | SMILES |
| --- | --- | --- | --- | --- | --- |
| > 1000 | 100 to 1000 | 100 to 1000 | 100/1 |  | CC[C@H](C)[C@@H]1NCCOc2ccc(C(=O)O)cc2CCCNC(=O)[C@@H](Cc2ccccc2)NC(=O)[C@@H](C)N(C)C1=O |
| 1 to 100 | 10 to 100 |  | >800/1 | 10 to 100 | CC[C@H](C)[C@@H]1NCCCc2ccccc2C=CCNC(=O)[C@@H](Cc2ccccc2)NC(=O)[C@@H](C)N(C)C1=O |

Like-named read-outs stand apart in the source and are kept apart here.
